Measurements taken from patent US20080064628A1, “Fibrinogen Targetting Microparticles For Promoting Haemostasis” (Haemostatix Limited, priority 2003, published 2008).

How the values were obtained:
fibrinogen (human) = fibrinogen (human) (UniProt P02671); test: cell-based or functional assay
thrombin = test: Response of products to thrombin in platelet-free plasma (light transmission aggregometer); format: biochemical, human; details: suboptimal thrombin, increase in light transmission over 20 minutes, mean ± sd of 4 experiments
Text: To determine whether the fibrinogen bound to the peptide on the agent of the invention can still be cleaved by thrombin to form fibrin, an agent of the invention can be treated with human thrombin. Cross-linking of the agent of the invention via fibrin-fibrin bridging can be tested in a modified aggregation assay, for example, a protocol based on Levi et al, 1999, Nature Medicine, […], 107-111. The method that we used is reported below.
1. Method for assessing the response of products to thrombin in platelet-free plasma.
The assay was performed using a light transmission aggregometer (we used a PAP4 aggregometer (BioData Corporation)). Thrombin was added to a mixture of plasma (without platelets) and product. […] Aggregation of the microspheres causes an increase in light transmission, which can be recorded as percentage “aggregation” relative to plasma alone.
(i) The count of the products, reference batch or controls was adjusted to 100×10^3/ml. The microspheres can be counted using a particle counter such as a Flow cytometer (e.g. Beckman Coulter MCL-XL) or Coulter Z2. […]
(iv) 50 μl of each of the test preparations or product, reference batch or control microspheres were added to 350 μl of platelet-free plasma. The increase in light transmission over 20 minutes in the presence and absence of suboptimal thrombin (determined as described above) was measured.

Percentage aggregation (+thrombin); Reference batch (fibrinogen (human)) | Percentage aggregation (+thrombin); … microspheres incubated with 0 mg/ml fibrinogen (fibrinogen (human)) | Percentage aggregation (+thrombin); … microspheres incubated with 0.01 mg/ml fibrinogen (fibrinogen (human)) | Percentage aggregation (+thrombin); … microspheres incubated with 0.1 mg/ml fibrinogen (fibrinogen (human)) | Percentage aggregation (+thrombin); … microspheres incubated with 1 mg/ml fibrinogen (fibrinogen (human)) | Percentage aggregation in the presence of thrombin; Product 1 (fibrinogen bound via …) in platelet-free plasma (fibrinogen (human)) | Percentage aggregation in the presence of thrombin; Product 2 (peptide microspheres without preloaded fibrinogen) in platelet-free plasma (fibrinogen (human)) | Percentage aggregation in the presence of thrombin; Reference batch (fibrinogen directly on microspheres) in platelet-free plasma (fibrinogen (human)) | Substance | Percentage aggregation in the presence of thrombin (thrombin) | Percentage aggregation in the presence of thrombin (thrombin; listed as 0 mg/ml)
20.5% | 17.5% | 31.2% | 90.8% | 87.2% | 90% | 17.5% | 20.5% | thrombin (from UniProt P00734 328-622) (enzyme) |  | 
 |  |  |  |  |  |  |  | Product 2: albumin microspheres with peptide GPRPGGGGGGC bound, without fibrinogen | 17.5 ± 14.1% | 17.5 ± 14.25%
